{"sequences": {"note": "Sequences of proteins named here, by UniProt entry; tags and fusion partners are left off.", "UniProt Q96LB2, whole entry": "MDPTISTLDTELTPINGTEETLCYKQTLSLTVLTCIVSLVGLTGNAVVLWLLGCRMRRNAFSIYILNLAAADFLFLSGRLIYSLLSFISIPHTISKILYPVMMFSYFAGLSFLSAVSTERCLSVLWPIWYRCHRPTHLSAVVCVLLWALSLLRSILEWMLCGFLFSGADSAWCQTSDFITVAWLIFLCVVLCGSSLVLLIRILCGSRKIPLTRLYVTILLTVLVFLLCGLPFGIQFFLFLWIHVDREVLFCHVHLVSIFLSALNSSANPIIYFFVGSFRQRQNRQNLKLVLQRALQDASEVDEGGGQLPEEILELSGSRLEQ"}, "source": "PubChem BioAssay AID588627", "about": "(Johns Hopkins Ion Channel Center, 2011)", "note": "This is a selection; strong and weak results do not stand in their true shares. Some tests of the compounds listed are not included; inactive here does not mean inactive elsewhere. Calls of active or inactive are those of the source.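 How the source made its calls: active means calcium response B-score plate-corrected fluorescence ratio at least 3 library SD, with starting fluorescence B-score inside 5 SD; inactive means the rest.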", "data": [{"target": "Mas-related G-protein coupled receptor member X1 (Homo sapiens) (UniProt Q96LB2)", "assay": "agonists of human MrgX1 receptor, primary screen, HEK293 cells, Fluo-4 calcium flux (AID 588627)", "conditions": "Fluo-4 calcium fluorescence, agonist mode, at 10 µM", "procedure,_shortened": "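System – MrgX1-expressing HEK293 cells · Incubation – cells plated overnight, dye loaded 0.5 h 37 °C, 0.5 h room temperature · Technique – kinetic Fluo-4 NW fluorescence of intracellular calcium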", "values": [{"smiles": "COc1ccc(Br)c(C(=O)NCC2(N3CCCCC3)CCCCC2)c1", "outcome": "inactive"}, {"smiles": "CN(C)c1cccc(C(=O)NCC2(N(C)C)CCCCC2)c1", "outcome": "inactive"}, {"smiles": "CC(C)Oc1ccc(C(=O)NCC2(N(C)C)CCCCC2)cc1", "outcome": "inactive"}, {"smiles": "O=C(OC1CN2CCC1CC2)C(CO)(c1ccccc1)c1ccccc1", "note": "(centres undefined)", "outcome": "inactive"}, {"smiles": "COc1ccc(Cl)cc1C(=O)NCC1(N(C)C)CCCCC1", "outcome": "inactive"}, {"smiles": "COc1cccc(C(=O)NCC2(N3CCCCC3)CCCCC2)c1", "outcome": "inactive"}, {"smiles": "O=C(NCC1(N2CCCCC2)CCCCC1)c1cccc(Cl)c1", "outcome": "inactive"}, {"smiles": "CN(C)C1(CNC(=O)c2ccc(Br)cc2)CCCCC1", "outcome": "inactive"}, {"smiles": "COc1cc(C(=O)NCC2(N(C)C)CCCCC2)c([N+](=O)[O-])cc1OC", "outcome": "inactive"}, {"smiles": "O=C(NCC1(N2CCCCC2)CCCCC1)c1cc(F)c(F)cc1Cl", "outcome": "inactive"}, {"smiles": "C=CCN1CCN(CCOC(=O)C(O)(c2ccccc2)c2ccccc2)CC1", "outcome": "inactive"}, {"smiles": "O=C(NCC1(N2CCCCC2)CCCCC1)c1cccc(Br)c1", "outcome": "inactive"}, {"smiles": "Cc1cc(C(=O)NCC2(N3CCCCC3)CCCCC2)ccc1[N+](=O)[O-]", "outcome": "inactive"}, {"smiles": "CCN1CCCC(OC(=O)C2(O)c3ccccc3C=Cc3ccccc32)C1", "note": "(centres undefined)", "outcome": "inactive"}, {"smiles": "COc1ccc(C(=O)NCC2(N(C)C)CCCCC2)cc1", "outcome": "inactive"}, {"smiles": "CN(C)C1CCCC1OC(=O)C(O)(c1ccccc1)c1ccccc1", "note": "(centres undefined)", "outcome": "inactive"}, {"smiles": "CN(C)c1ccc(C(=O)NCC2(N(C)C)CCCCC2)cc1", "outcome": "inactive"}, {"smiles": "Cc1ccccc1C(=O)NCC1(N2CCCCC2)CCCCC1", "outcome": "inactive"}, {"smiles": "CC(C)N1C(=O)CC2(CCN(CCOC(=O)C(O)(c3ccccc3)c3ccccc3)CC2)C1=O", "outcome": "inactive"}, {"smiles": "COc1cc(SC)ccc1C(=O)NCC1(N(C)C)CCCCC1", "outcome": "inactive"}, {"smiles": "CCN(CC)CC(C)C(C)OC(=O)C(O)(c1ccccc1)c1ccccc1", "note": "(centres undefined)", "outcome": "inactive"}, {"smiles": "Cc1ccc(C(=O)NCC2(N3CCCCC3)CCCCC2)cc1", "outcome": "inactive"}, {"smiles": "O=C(NCC1(N2CCCCC2)CCCCC1)c1cc([N+](=O)[O-])ccc1Cl", "outcome": "inactive"}, {"smiles": "CN1[C@@H]2CC[C@H]1CC(OC(=O)C(O)(c1ccccc1)c1ccccc1)C2", "note": "(some centres undefined)", "outcome": "inactive"}]}]}
